Consider 13 compounds from US9040534B2 (Janssen Pharmaceutica NV, priority 2013, dated 2015).

The chains behind the UniProt entries cited, without tags or fusion partners. Where a name states a change or a piece, a line headed by the entry shows the natural chain unless it says otherwise.
UniProt Q64663: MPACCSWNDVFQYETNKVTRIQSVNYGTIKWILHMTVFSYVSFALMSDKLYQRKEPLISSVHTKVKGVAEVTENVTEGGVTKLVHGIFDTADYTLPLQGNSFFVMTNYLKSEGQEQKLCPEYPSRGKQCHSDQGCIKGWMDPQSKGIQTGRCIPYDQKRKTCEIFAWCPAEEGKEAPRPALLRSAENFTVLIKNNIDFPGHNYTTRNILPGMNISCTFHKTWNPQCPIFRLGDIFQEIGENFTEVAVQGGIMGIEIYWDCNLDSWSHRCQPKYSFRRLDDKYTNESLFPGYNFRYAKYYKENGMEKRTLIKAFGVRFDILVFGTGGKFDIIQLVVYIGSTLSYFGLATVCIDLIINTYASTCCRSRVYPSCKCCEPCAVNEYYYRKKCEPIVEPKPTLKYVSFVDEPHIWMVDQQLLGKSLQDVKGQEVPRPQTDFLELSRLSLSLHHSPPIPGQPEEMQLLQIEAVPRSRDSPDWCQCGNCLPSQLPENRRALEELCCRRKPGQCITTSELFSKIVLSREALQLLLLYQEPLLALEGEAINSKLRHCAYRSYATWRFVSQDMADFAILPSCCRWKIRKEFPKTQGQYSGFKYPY
UniProt Q99572: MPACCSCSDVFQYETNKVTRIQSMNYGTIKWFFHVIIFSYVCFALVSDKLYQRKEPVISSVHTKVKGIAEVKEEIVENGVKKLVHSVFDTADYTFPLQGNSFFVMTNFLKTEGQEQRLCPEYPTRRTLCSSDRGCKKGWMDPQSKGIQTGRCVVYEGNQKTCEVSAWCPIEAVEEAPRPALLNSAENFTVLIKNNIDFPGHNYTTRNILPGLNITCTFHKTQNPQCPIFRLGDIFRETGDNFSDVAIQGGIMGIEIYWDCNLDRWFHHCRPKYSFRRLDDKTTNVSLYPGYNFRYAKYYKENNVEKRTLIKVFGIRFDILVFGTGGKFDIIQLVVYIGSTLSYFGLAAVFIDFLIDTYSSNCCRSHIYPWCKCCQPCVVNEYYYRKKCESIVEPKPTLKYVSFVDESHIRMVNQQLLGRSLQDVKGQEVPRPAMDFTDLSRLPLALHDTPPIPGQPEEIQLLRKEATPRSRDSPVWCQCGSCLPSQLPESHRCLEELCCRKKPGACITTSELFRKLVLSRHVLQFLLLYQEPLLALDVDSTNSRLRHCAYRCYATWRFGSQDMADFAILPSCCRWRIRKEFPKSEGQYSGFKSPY

Test [1] has as its target T1, rat P2X7 (Rattus norvegicus (Rat), UniProt Q64663). In words: Radioligand binding, rat P2X7-1321N1 cell membranes, tritiated A-804598 tracer. The settings on record: 1 hour at 4° C. As to the method:
(B) Radioligand binding: human or rat P2X7-1321N1 cells were collected and frozen @ −80° C. On the day of the experiment, cell membrane preparations were made according to standard published methods. The total assay volume was 100 μl:10 μl compound (10×)+(b) 40 μl tracer (2.5×)+50 μl membrane (2×). The tracer used for the assay was tritiated A-804598. The compound can be prepared as described in the literature. (Donnelly-Roberts, D. Neuropharmacology 2009, 56 (1), 223-229.) Compounds, tracer and membranes were incubated for 1 hour @ 4° C. The assay was terminated by filtration (GF/B filters pre-soaked with 0.3% PEI) and washed with washing buffer (Tris-HCl 50 mM). The IC50 generated in the binding assay was corrected for tracer concentration and affinity of the tracer to derive at the affinity (Ki) of the test compounds.

The next test deals with P2X7 (Homo sapiens (Human), UniProt Q99572). In words: Radioligand binding, human P2X7-1321N1 cell membranes, tritiated A-804598 tracer. The settings on record: 1 hour at 4° C. The method, then: (B) Radioligand binding: human or rat P2X7-1321N1 cells were collected and frozen @ −80° C. On the day of the experiment, cell membrane preparations were made according to standard published methods. […] The compound can be prepared as described in the literature. […] The assay was terminated by filtration (GF/B filters pre-soaked with 0.3% PEI) and washed with washing buffer (Tris-HCl 50 mM). The IC50 generated in the binding assay was corrected for tracer concentration and affinity of the tracer to derive at the affinity (Ki) of the test compounds.

Test [2] concerns the target T1, rat P2X7. In words: Ca2+ flux (FLIPR) in 1321N1 cells expressing recombinant rat P2X7 channel. The settings on record: 250 μM BzATP. It counts as cell-based. The method, then:
(A) Ca^2+ Flux: 1321N1 cells expressing the recombinant human, rat or mouse P2X7 channel was cultured in HyQ DME/(HyClone/Dulbecco's Modified Eagle Medium) high glucose supplemented with 10% Fetal Bovine Serum (FBS) and appropriate selection marker. Cells were seeded at a density of 25000 cells/well (96-well clear bottom black walled plates) in 100 μl volume/well. On the day of the experiment, cell plates were washed with assay buffer, containing (in mM): 130 NaCl, 2 KCl, 1 CaCl2, 1 MgCl2, 10 HEPES, 5 glucose; pH 7.40 and 300 mOs. After the wash, cells were loaded with the Calcium-4 dye (Molecular Device) and incubated in the dark for 60 minutes. Test compounds were prepared at 250× the test concentration in neat DMSO. Intermediate 96-well compound plates were prepared by transferring 1.2 μL of the compound into 300 μL of assay buffer. A further 3× dilution occurred when transferring 50 μL/well of the compound plate to 100 μL/well in the cell plate. Cells were incubated with test compounds and dye for 30 minutes. […] The fluorescence change was measured 180 seconds after adding the agonist.
(Calcium assays in cells follow changes in intracellular calcium, usually with a dye or a luminescent sensor.)

SMILES strings stand for the structures.

In the case of `C[C@H]1Cn2c(nnc2-c2cscn2)C(=O)N1Cc1cccc(C(F)(F)F)c1Cl` [Example 32, (6S)-7-[2-Chloro-3-(trifluoromethyl)benzyl]-6-methyl-3-(1,3-thiazol-4-yl)-6,7-dihydro[1,2,4]triazolo[4,3-a]pyrazin-8(5H)-one], the Ki at rat P2X7 [1] was found to be 0.4 nM; on P2X7, 2 nM.
On the same counts, the results for `Cc1cnc(-c2nnc3n2C[C@H](C)N(Cc2cccc(C(F)(F)F)c2Cl)C3=O)cn1` [Example 19, (6S)-7-[2-Chloro-3-(trifluoromethyl)benzyl]-6-methyl-3-(5-methylpyrazin-2-yl)-6,7-dihydro[1,2,4]triazolo[4,3-a]pyrazin-8(5H)-one] are 6.3 nM and 3.2 nM.
On the same counts, the results for `CC[C@H]1Cn2c(nnc2-c2ncc(F)cn2)C(=O)N1Cc1cccc(C(F)(F)F)c1Cl` [Example 75, (6S)-7-[2-Chloro-3-(trifluoromethyl)benzyl]-6-ethyl-3-(5-fluoropyrimidin-2-yl)-6,7-dihydro[1,2,4]triazolo[4,3-a]pyrazin-8(5H)-one] are 1.8 nM and 3.2 nM.
On the same counts, the results for `C[C@H]1Cn2c(nnc2-c2cnco2)C(=O)N1Cc1cccc(C(F)(F)F)c1Cl` [Example 22, (6S)-7-[2-Chloro-3-(trifluoromethyl)benzyl]-6-methyl-3-(1,3-oxazol-5-yl)-6,7-dihydro[1,2,4]triazolo[4,3-a]pyrazin-8(5H)-one] are 25.1 nM and 6.3 nM.
Turning to `O=C1c2nnc(-c3cc[nH]n3)n2CC(C2CC2)N1Cc1cccc(C(F)(F)F)c1Cl` (racemic) [Example 68, (±)-7-[2-Chloro-3-(trifluoromethyl)benzyl]-6-cyclopropyl-3-(1H-pyrazol-3-yl)-6,7-dihydro[1,2,4]triazolo[4,3-a]pyrazin-8(5H)-one], on rat P2X7 [2], the IC50 is 11.8 nM. In addition, on P2X7, the Ki came out at 4 nM.
In the case of `C[C@H]1Cn2c(nnc2-c2ccc(F)cc2)C(=O)N1Cc1cccc(C(F)(F)F)c1Cl` [Example 17, (6S)-7-[2-Chloro-3-(trifluoromethyl)benzyl]-3-(4-fluorophenyl)-6-methyl-6,7-dihydro[1,2,4]triazolo[4,3-a]pyrazin-8(5H)-one], the affinity on rat P2X7 [1] corresponds to a Ki of 5 nM. That is a single-digit nanomolar value.
In the case of `O=C1c2nnc(-c3ncccn3)n2CC(C2CC2)N1Cc1cccc(C(F)(F)F)c1Cl` (racemic) [Example 64, (±)-7-[2-Chloro-3-(trifluoromethyl)benzyl]-6-cyclopropyl-3-pyrimidin-2-yl-6,7-dihydro[1,2,4]triazolo[4,3-a]pyrazin-8(5H)-one], the IC50 on rat P2X7 [2] worked out at 4.6 nM. The compound also had a Ki at P2X7 of 6.3 nM.
The compound `C[C@H](c1ccccc1)N1C(=O)c2nnc(-c3cnccn3)n2C[C@@H]1C` (relative stereo) [Example 94, (6S)-6-Methyl-7-[(1R*)-1-phenylethyl]-3-pyrazin-2-yl-6,7-dihydro[1,2,4]triazolo[4,3-a]pyrazin-8(5H)-one] registered a Ki at rat P2X7 [1] of 123 nM.
Consider `CC(c1ccccc1)N1C(=O)c2nnc(-c3cnccn3)n2C[C@@H]1C` (stereo partly drawn) [Example 92, (6S)-6-Methyl-7-(1-phenylethyl)-3-pyrazin-2-yl-6,7-dihydro[1,2,4]triazolo[4,3-a]pyrazin-8(5H)-one], for which, at rat P2X7 [1], the Ki was found to be 16.4 nM.
Compound `C[C@H]1Cn2c(nnc2-c2ncccn2)C(=O)N1Cc1cccc(C(F)(F)F)c1Cl` [Example 27, (6S)-7-[2-Chloro-3-(trifluoromethyl)benzyl]-6-methyl-3-pyrimidin-2-yl-6,7-dihydro[1,2,4]triazolo[4,3-a]pyrazin-8(5H)-one] registered a Ki on rat P2X7 [1] of 0.4 nM.
As to `C[C@H]1Cn2c(nnc2C2CCN(C(=O)OC(C)(C)C)C2)C(=O)N1Cc1cccc(C(F)(F)F)c1Cl` (stereo partly drawn) [Example 58, (6S)-tert-Butyl3-{7-[2-chloro-3-(trifluoromethyl)benzyl]-6-methyl-8-oxo-5,6,7,8-tetrahydro[1,2,4]triazolo[4,3-a]pyrazin-3-yl}pyrrolidine-1-carboxylate], the IC50 on rat P2X7 [2] stood at 24700 nM. Also, the Ki on P2X7 came out at 398 nM.
`C[C@H]1Cn2c(nnc2-c2cocn2)C(=O)N1Cc1cccc(C(F)(F)F)c1Cl` [Example 21, (6S)-7-[2-Chloro-3-(trifluoromethyl)benzyl]-6-methyl-3-(1,3-oxazol-4-yl)-6,7-dihydro[1,2,4]triazolo[4,3-a]pyrazin-8(5H)-one]: the Ki on rat P2X7 [1] was 3.5 nM; on P2X7, 1.4 nM. On rat P2X7 [2], the IC50 worked out at 1580 nM.
In the case of `O=C1c2nnc(-c3ccc(F)cn3)n2CC(C2CC2)N1Cc1cccc(C(F)(F)F)c1Cl` (racemic) [Example 69, (±)-7-[2-Chloro-3-(trifluoromethyl)benzyl]-6-cyclopropyl-3-(5-fluoropyridin-2-yl)-6,7-dihydro[1,2,4]triazolo[4,3-a]pyrazin-8(5H)-one], the IC50 at rat P2X7 [2] came out at 398 nM. Also, on P2X7, the Ki is 31.6 nM.

What is called Ki is a dissociation constant, usually derived from enzyme kinetics or from competition with a known ligand. Low values mean tighter binding, high ones weaker binding. One may read the IC50 as the midpoint of a concentration-inhibition curve.
